Data as given in patent publication US9364496B2, “Custirsen treatment with reduced toxicity” (ONCOGENEX TECHNOLOGIES INC., priority 2013, dated 2016).
“And” between values parts separate entries of the source, which are not always exact repeats. Identical values can stand only once.

Legend:
[1] = tested on: RPMI 8226 (human myeloma) xenograft; test: In vivo activity of custirsen with Velcade, RPMI 8226 xenograft (Example 14); conditions: Velcade 0.5 mg/kg iv biwk
Method: The cells were implanted subcutaneously into female SCID mice with 7×10^6 cells inoculum.
Tumors and body weights were measured weekly until termination of the study on day 71. Response to treatment was evaluated for tumor growth inhibition (TGI) and tumor growth delay (TGD).
70 CB.17 SCID female mice, 4-6 weeks old, 16-20 grams, obtained from Harlan animal breeding center.
Sample from the cell suspension was taken for counting (0.3 ml in duplicates for CEDEX) before spun down. Cell viability was 85.6% and live cell concentration was 167×10^5 cells/ml. The pellet was resuspended in HBSS to a final volume of 8 ml.
Tumors were implanted subcutaneously with RPMI-8226 cells into the right flank of the mouse on Day 0. Each animal received a s.c. injection 7×10^6 cells in 0.1 ml suspension. On day 20, mice were sorted by the optimal tumor volume ([…]) and were allocated into 5 groups of 10 mice. Mice were individually tagged and their tumor volume and body weight were monitored weekly during the study. Tumor size was measured by caliper and calculated using the formula: […]
The treatment started on […] (0.2 ml per 20 grams v/w) and continued till day 52, after which the remaining mice were left for observation until day 71.

[2] = tested on: RPMI 8226 (human myeloma) xenograft; test: In vivo activity of custirsen (TV-1011), different doses and regimens with Bortezomib, RPMI 8226 xenograft (Example 15); conditions: for Day 21 volume / Day 28 volume / Day 33 volume / Day 41 volume: Velcade 0.5 mg/kg biwk; for volume / Δ volume: group 2: Velcade 0.5 mg/kg biwk; for Δ volume: Day 62 vs baseline
Method: 120 CB.17 SCID female mice, 4-6 weeks old, 16-20 grams, obtained from Harlan animal breeding center.
Cells (originated from ATCC) were cultured on RPMI medium. Cell suspension was centrifuged and resuspended in 50% Matrigel/HBSS to a final concentration of 7×10^7 cells/ml. The suspension was implanted s.c. in the right flank of the anesthetized mouse at a volume of 100 μl.
Seven ml saline were added to the original vial containing 3.5 mg powder resulting in 0.5 mg/ml. Three ml of this solution were added to 27 ml saline to receive 0.05 mg/ml concentration. […] 28.5 ml of 4 mg/ml were added to 9.5 saline to receive 3 mg/ml.
Mice were implanted subcutaneously, with 7×10^6 RPMI 8226 cells/mouse (in 50% Martigel/HBSS) on Day 0. On day 21, mice were sorted by the optimal average tumor volume (˜130 mm3) and were allocated into eight groups of 10 mice each.
The treatment started on day 21 post implant, 0.2 ml per 20 grams v/w.
[formula] The analysis of weight gain and tumor volume progression was made using one-way ANOVA followed by Tukey post-hoc comparisons.

[3] = Velcade 0.5 mg/kg iv biwk, day 62

CC(C)C[C@H](NC(=O)[C@H](Cc1ccccc1)NC(=O)c1cnccn1)B(O)O [Velcade®, Bortezomib, reference compound]
Δ volume ([1]; Day 48, group mean): 606.6
volume ([1]; Day 48, individual mice): 1060 and 549
Δ volume ([1]; Day 48, individual mice): 537.5
volume ([1]; Day 51, individual mice): 619 and 578
Day 45 volume ([1]; group Mean, n 10): 575.1
Day 20 volume ([1]; individual mouse): 119
Day 45 volume ([1]; individual mouse): 621 and 539
Day 27 Δ volume ([1]; individual mouse, vs Day 20): 106.5
Day 34 Δ volume ([1]; individual mouse, vs Day 20): 121.9 and 124.7
Day 45 Δ volume ([1]; individual mouse, vs Day 20): 544.2 and 592.6 and 582.0
Day 21 volume ([2]; group Mean): 129.3
Day 28 volume ([2]; group Mean): 178.9
Day 33 volume ([2]; group Mean): 187.6
Day 41 volume ([2]; group Mean): 243.6
Day 21 volume ([2]; individual mice): 100 and 106 and 117 and 119 and 124 and 129 and 133 and 142 and 154 and 166
Day 28 volume ([2]; individual mice): 127 and 162 and 223 and 192 and 155 and 152 and 172 and 141 and 243 and 222
Day 33 volume ([2]; individual mice): 152 (2×) and 175 and 216 and 189 and 187 (2×) and 227 and 165 and 225
Day 41 volume ([2]; individual mice): 120 and 188 and 288 and 244 and 225 and 299 and 191 and 245 and 280 and 355
% TGI [2, 3]: 43%
No. of CR [2, 3]: 0
No. of PR [2, 3]: 0
No. of TRD [2, 3]: 0
No. og nTRD [2, 3]: 0
Δ mean tumor volume, (mean ± se) [2, 3]: 996 ± 179
effect on tumor growth, in words ([2]; Velcade alone 0.5 mg/kg iv biwk): moderate
volume ([2]; Day 48, group Mean, n 10): 382.6
volume ([2]; Day 48, individual animals): 180 and 423 and 682 and 441 and 282 and 431 and 252 and 281 and 363 and 490
volume ([2]; Day 55, group Mean, n 10): 633.5
volume ([2]; Day 55, individual animals): 164 and 924 and 1082 and 644 and 403 and 809 and 562 and 481 and 371 and 894
volume ([2]; Day 62, group Mean, n 10): 1125.2
volume ([2]; Day 62, individual animals): 174 and 1747 and 1988 and 1094 and 726 and 1451 and 1084 and 924 and 520 and 1544
Δ volume ([2]; group Mean, n 10): 995.9
Δ volume ([2]; individual animals): 74.3 and 1638.7 and 1870.6 and 974.8 and 601.2 and 1322.3 and 950.8 and 782.5 and 366.6 and 1377.6
